# Measured values published in PubChem BioAssay AID624125 (The Scripps Research Institute Molecular Screening Center, 2012).
# Sequences of proteins named here, by UniProt entry; tags and fusion partners are left off.
# UniProt P08173, whole entry, looked up: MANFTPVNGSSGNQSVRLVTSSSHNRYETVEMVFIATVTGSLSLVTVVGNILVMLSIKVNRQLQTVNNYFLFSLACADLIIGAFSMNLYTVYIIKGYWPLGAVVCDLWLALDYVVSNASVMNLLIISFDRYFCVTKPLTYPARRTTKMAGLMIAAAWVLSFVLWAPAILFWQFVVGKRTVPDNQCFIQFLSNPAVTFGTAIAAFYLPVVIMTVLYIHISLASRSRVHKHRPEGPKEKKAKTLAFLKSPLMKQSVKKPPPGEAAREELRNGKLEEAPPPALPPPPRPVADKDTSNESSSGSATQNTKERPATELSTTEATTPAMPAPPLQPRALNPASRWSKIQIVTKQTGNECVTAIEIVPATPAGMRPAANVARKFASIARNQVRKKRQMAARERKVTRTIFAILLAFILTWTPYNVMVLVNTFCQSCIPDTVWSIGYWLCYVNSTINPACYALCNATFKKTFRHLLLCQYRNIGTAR
# Only a part is listed here, and it is no random draw. The source made the active and inactive calls.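 The calls were made as follows: active = inhibition above its plate's cutoff, the mean inhibition of sample wells plus 3 SD (cut at about 27% in these data); inactive = the rest.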
# Target: Muscarinic acetylcholine receptor M4 (Homo sapiens) (UniProt P08173)
# Assay: human M4 muscarinic receptor antagonists, primary screen, CHO cells, Fluo-8 calcium fluorescence (AID 624125);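 also: 0% = acetylcholine EC80 with DMSO and 100% = DMSO without agonist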
# Settings: CHO-hM4 cells, ACh EC80, Fluo-8 calcium fluorescence; at 3 µM; active compounds read high
row,SMILES,inhibition
1,O=C(O)c1ccccc1[As](=O)(O)O,inactive: -8.85%
2,CC(=O)Nc1ccc([As](=O)(O)O)cc1,inactive: -10.8%
3,CC(=O)O[C@]1(C)C(=O)OC/C2=C/CN(C)CCC(OC(=O)[C@@](O)(C(C)O)C[C@H]1C)C2=O (some centres undefined),inactive: 0.65%
4,CCCC1OP(N)(=O)OCC1CC (centres undefined),inactive: -18.6%
5,CN(C)P(=O)(N(C)C)n1c(Nc2ccccc2)nnc1-c1ccccc1,inactive: -2.84%
6,O=P(Nc1nc2ccc(Cl)cc2s1)(c1ccccc1)c1ccccc1,inactive: 15.8%
7,CCOP(=O)(Nc1ccccc1)OCC,inactive: -1.49%
8,Cc1cc(SC(NC(=O)c2ccc(F)cc2)C(Cl)(Cl)Cl)ncn1 (centres undefined),inactive: 0.53%
9,CN(C(=O)Cc1ccc(Cl)c(Cl)c1)[C@H]1CCCC[C@@H]1N1CCCC1,inactive: -1.68%
10,Cc1ccc(NP(=O)(Oc2ccccc2F)Oc2ccccc2F)nc1,inactive: -7.29%
11,CCN(N=Nc1nonc1N)c1nonc1N,active: 27.2%
12,Nc1cccc2ccc([As](=O)(O)O)cc12,inactive: 22.2%
13,NC(=O)c1cc([N+](=O)[O-])cc([N+](=O)[O-])c1N,inactive: -1.54%
14,CN(C(=O)Cc1ccc(Cl)c(Cl)c1)[C@H]1CCCC[C@H]1N1CCCC1,inactive: -9.7%
15,Cc1ccc(N/C(=N/P(=O)(N2CCOCC2)N2CCOCC2)N2CCOCC2)cc1,inactive: -16.1%
16,CC(C)[C@H]1C(=O)O[C@@H]2CCN3CC=C(COC(=O)[C@](C)(O)[C@]1(C)O)[C@H]23,inactive: 4.04%
17,COc1ccccc1OP(=O)(Nc1ccc(C)cn1)Oc1ccccc1OC,inactive: -9.54%
18,Cc1ccc(OP(=O)(Nc2nccs2)Oc2ccc(C)cc2)cc1,inactive: 1.04%
19,Clc1ccc(Cl)c(NC2=NCC(CBr)S2)c1 (centres undefined),inactive: -1.43%
20,CN1CCCC(OC(=O)C(c2ccccc2)c2ccccc2)C1 (centres undefined),active: 49.5%
21,CC(C)CC(=O)NC(Sc1ccc(Cl)cc1)C(Cl)(Cl)Cl (centres undefined),inactive: 3%
22,Nc1cc(N)c2nonc2c1[N+](=O)[O-],inactive: 0.15%
23,Oc1ccccc1CNc1ccccn1,inactive: 13.7%
24,O=C(NC(Sc1ccncn1)C(Cl)(Cl)Cl)c1ccccc1 (centres undefined),inactive: -1.58%
25,O=[N+]([O-])C1C(O)C(O)C([N+](=O)[O-])C(O)C1O (centres undefined),inactive: -1.65%

row,SMILES,inhibition
1,COc1ccc(C2=NCC(CBr)S2)cc1 (centres undefined),inactive: -0.13%
2,CC(=O)N1C2C3N(C(C)=O)C1C1N(C(C)=O)C(C(N1C(C)=O)N3C(C)=O)N2C(C)=O,inactive: 5.28%
3,O=[N+]([O-])c1cccc2n[nH]nc12,inactive: 7.83%
4,Cc1ccc(NP(=O)(Oc2ccccc2)Oc2ccccc2)nc1,inactive: -4.99%
5,O=[N+]([O-])c1cc([N+](=O)[O-])c(CCNc2ccccc2)c([N+](=O)[O-])c1,inactive: -1.58%
6,CCc1nc2c(n1)c1c(non1O)c1c2no[n+]1[O-],inactive: 4.35%
7,Nc1ccc([As](=O)(O)c2ccc(N)cc2)cc1,inactive: 4.13%
8,C[N+]1=C2C=CC=CC=C2SC12C([N+](=O)[O-])=CC([N+](=O)[O-])=C[C-]2[N+](=O)[O-] (centres undefined),active: 48.1%
9,CCN(/C(=N/P(=O)(N1CCOCC1)N1CCOCC1)N1CCOCC1)c1ccc(OC)cc1,inactive: -8.6%
10,CC(C)=N/N=C(\N)N[N+](=O)[O-],inactive: 0.72%
11,CC(C)c1nc(Nc2ccccc2)n(P(=O)(N(C)C)N(C)C)n1,inactive: -11.7%
12,CN(C)C(=O)OCCc1n(C)cc[n+]1C,inactive: 11.2%
13,c1cc(-c2nn[nH]n2)ccc1-c1nn[nH]n1,inactive: -6.97%
14,CC1CCN(C(=O)Oc2c(Cl)cc(Cl)c3cccnc23)CC1,inactive: 6.38%
15,O=P1(N(CCCl)CCCl)OCCCS1 (centres undefined),inactive: -1.61%
16,O=C(Nc1cc([As](=O)(O)O)ccc1O)c1ccccc1,inactive: -0.57%
17,CC(C)(C)C(=O)NC(Sc1ccncn1)C(Cl)(Cl)Cl (centres undefined),inactive: -7.27%
18,O=[N+]([O-])c1ncn(CCn2ncnc2[N+](=O)[O-])n1,inactive: -4.13%
19,O=[N+]([O-])c1cccc(NC2=NCC(CBr)S2)c1 (centres undefined),inactive: 7.33%
20,COC(=O)C1(C)COP(=O)(Nc2ccccc2)OC1 (centres undefined),inactive: -9.32%
21,C/C=C1/C[C@@H](C)[C@](O)(CO)C(=O)OCC2=CCN3CC[C@@H](OC1=O)[C@@H]23,inactive: -6.91%
22,O=C(O)CNc1ccc([As](=O)(O)O)cc1,inactive: 5.55%
23,Nc1ccc(CCCCOc2ccccc2)cc1,inactive: -2.68%
24,COc1ccc(N)c([N+](=O)[O-])c1[N+](=O)[O-],inactive: -0.34%
25,O=P(Nc1ccccn1)(c1ccc(Br)cc1)c1ccc(Br)cc1,inactive: -12.5%

row,SMILES,inhibition
1,O=P(Nc1nc2ccccc2s1)(c1ccccc1)c1ccccc1,inactive: 5.16%
2,C[C@H]1OP(=O)(Oc2ccccc2)[C@H](O)[C@H](O)[C@H]1N=[N+]=[N-] (some centres undefined),inactive: -5.86%
3,CC(=O)NC(SC(=S)N(C)C)C(Cl)(Cl)Cl (centres undefined),inactive: 6.29%
4,O=[N+]([O-])c1ncn(CCn2cnc([N+](=O)[O-])n2)n1,inactive: -6.68%
5,O=[N+]([O-])c1ccc(O)c(/C=N/Nc2ccc([N+](=O)[O-])cc2[N+](=O)[O-])c1,inactive: -5.9%
6,O=[As](O)(c1ccccc1)c1ccc(O)cc1,inactive: 3.47%
7,Nc1ccc([As](=O)(O)c2ccc([N+](=O)[O-])cc2)cc1,inactive: -1.44%
8,C(Cc1nn[nH]n1)Cc1nn[nH]n1,inactive: 1.69%
9,O=P(Nc1nccs1)(c1ccccc1)c1ccccc1,inactive: 4.32%
10,CC(C)C(=O)NC(Sc1ccccc1)C(Cl)(Cl)Cl (centres undefined),inactive: -19.4%
11,c1nnnn1CCn1cnnn1,inactive: 3.17%
12,O=P1(Nc2nc3ccc(Cl)cc3s2)COc2ccccc2O1 (centres undefined),inactive: -10.8%
13,CCOc1ccc(C2=NCC(CBr)S2)cc1 (centres undefined),inactive: 2.48%
14,CCc1cc(O)c([N+](=O)[O-])c(C)c1[N+](=O)[O-],inactive: 9.33%
15,CC(C)(C)C(=O)NC(Sc1ccccc1)C(Cl)(Cl)Cl (centres undefined),inactive: 1.48%
16,N#C/C(=C\c1ccc(N(CCBr)CCBr)cc1)C(N)=O,inactive: 2.79%
17,CC(=O)c1ccc(N2CC2c2ccncc2)cc1 (centres undefined),inactive: -4.25%
18,CC1C(=O)OC2CCN3CC=C(COC(=O)C(C)(O)C1(C)O)C23 (centres undefined),inactive: -14.9%
19,COC(=O)C1(C)COP(=O)(NCc2ccccc2)OC1 (centres undefined),inactive: -8.95%
20,CCN(CC)CCOC(=O)C(O)(c1ccccc1)c1ccccc1,active: 98.8%
21,Cc1ccccc1CN(C)C(=O)COC(=O)C(O)(c1ccccc1)c1ccccc1,inactive: -4.1%
22,C[C@@H]1C=CCP(=O)(Oc2ccccc2)O1 (some centres undefined),inactive: -2.44%
23,C[C@H]1OP(=O)(Oc2ccccc2)C[C@@H]2O[C@@H]21 (some centres undefined),inactive: 2.65%
24,CC(=O)Nc1ccc([As](=O)(O)O)c(O)c1,inactive: 6.89%
25,CC(=O)Nc1ccc(Oc2c([N+](=O)[O-])cc([N+](=O)[O-])cc2[N+](=O)[O-])cc1,inactive: -0.34%

row,SMILES,inhibition
1,O=C(NC1CCS(=O)(=O)C1)NP(=S)(Oc1ccccc1)Oc1ccccc1 (centres undefined),inactive: -2.3%
2,CCNC(=S)/N=C(\N)N[N+](=O)[O-],inactive: -3.76%
3,c1ccc(-c2nn[nH]n2)c(-c2nn[nH]n2)c1,inactive: -1.92%
4,Cc1ccc(NP(=O)(Oc2cccc(C)c2)Oc2cccc(C)c2)nc1,inactive: 3.28%
5,C=C1C(=O)OC2CCN3CC=C(COC(=O)C(C)(O)C4(CO4)C1C)C23 (centres undefined),inactive: 0.45%
6,O=P1(N(CCCl)CCCl)OCCC2CCCCN21 (centres undefined),inactive: -8.35%
7,CC1C(=O)OC2CCN3CC4OC4(COC(=O)C(C)(O)C1(C)O)C23 (centres undefined),inactive: -5.2%
8,COC(=O)c1cc2c(s1)N=C(c1ccccc1)N(C)P2(=O)N1CCOCC1 (centres undefined),inactive: 6.95%
9,CC(=O)NC(SC(=S)N(CC(C)C)CC(C)C)C(Cl)(Cl)Cl (centres undefined),inactive: -4.5%
10,Cc1ccc(OP(=O)(Nc2ccccn2)Oc2ccc(C)cc2)cc1,inactive: -1.35%
11,Clc1ccc(N2CCN(Cc3c[nH]c4ncccc34)CC2)cc1,inactive: -20.9%
12,CCC(=O)N1C2C3N(C(=O)CC)C1C1N(C(=O)CC)C(C(N1C(=O)CC)N3C(=O)CC)N2C(=O)CC,inactive: 1.93%
13,CCN(C(=O)COC(=O)C(O)(c1ccccc1)c1ccccc1)c1c(N)n(Cc2ccccc2)c(=O)[nH]c1=O,inactive: -4.26%
14,Cc1ccccc1OP(=O)(Nc1ccccn1)Oc1ccccc1C,inactive: -2.46%
15,CC(NC(=O)COC(=O)C(O)(c1ccccc1)c1ccccc1)c1ccccc1 (centres undefined),inactive: -10.6%
16,CN(C)C(=O)Oc1noc2ccccc12,inactive: -1.22%
17,O=c1c2cc([N+](=O)[O-])ccc2[nH]c2c([N+](=O)[O-])cc([N+](=O)[O-])cc12,inactive: 0.27%
18,CS(=O)(=O)c1cc([N+](=O)[O-])c2no[n+]([O-])c2c1,inactive: 5.08%
19,CCOP1(=S)c2c(C)nn(CCC#N)c2N=C(c2ccccc2F)N1C (centres undefined),inactive: 14.1%
20,O=P(Nc1nccs1)(c1ccccc1)c1nc2ccccc2s1 (centres undefined),inactive: -0.36%
21,O=P(Nc1nccs1)(Oc1ccccc1)Oc1ccccc1,inactive: -9.83%
22,O=C(O)COc1ccc([As](=O)(O)O)cc1[N+](=O)[O-],inactive: 0.08%
23,Nc1ccccc1[As](=O)(O)c1ccccc1,inactive: -10.3%
24,NC(=O)Nc1ccc([As](=O)(O)O)cc1,inactive: 5.79%
